The values that follow come from PubChem BioAssay AID601 (SRMLSC, 2007).

Each structure is given as a SMILES string. Only a part is listed here, and it is no random draw. Activity calls are given as the source filed them.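 How the source made its calls: active means viability loss from added drug above about 55%, and viability with drug at most 40%, in both replicates (limit read from the data, passing the limit was not always enough); inconclusive means both conditions met in only one replicate; inactive means neither replicate meets both conditions.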

The nature of this assay: reversal of MRP1-mediated doxorubicin resistance, pilot screen, H69AR cells, doxorubicin co-treatment (AID 601). As to conditions: H69AR cells + 2 uM doxorubicin, CellTiter-Glo, 72 h; at 10 µM; hits give high values.
`CCOP1(=S)c2c(C)nn(CCC#N)c2N=C(c2ccccc2F)N1C` (stereo not given): the differential viability (reversal) is inactive: -0.26%. To `Cc1nn(-c2ccccc2)c2c1P(=O)(N1CCOCC1)N(C)C(c1ccccc1)=N2` (stereo not given) belongs inactive: -6.58%; to `O=C(COc1ccccc1)OC1CN2CCC1CC2` (stereo not given), inactive: 8.71%; to `COP1(=S)c2c(C)nn(CCC#N)c2N=C(c2ccc(F)cc2)N1C` (stereo not given), inactive: -4.32%.

As for `O=P(Nc1nccs1)(c1ccccc1)c1ccccc1`, the differential viability (reversal) was inactive: 11%.
